# Biological target: Huβ1AR (Homo sapiens, UniProt P08588)
# Sequences of proteins named here, by UniProt entry; tags and fusion partners are left off. Residues count along the entry.
# UniProt P08588, 58-377 limits assumed: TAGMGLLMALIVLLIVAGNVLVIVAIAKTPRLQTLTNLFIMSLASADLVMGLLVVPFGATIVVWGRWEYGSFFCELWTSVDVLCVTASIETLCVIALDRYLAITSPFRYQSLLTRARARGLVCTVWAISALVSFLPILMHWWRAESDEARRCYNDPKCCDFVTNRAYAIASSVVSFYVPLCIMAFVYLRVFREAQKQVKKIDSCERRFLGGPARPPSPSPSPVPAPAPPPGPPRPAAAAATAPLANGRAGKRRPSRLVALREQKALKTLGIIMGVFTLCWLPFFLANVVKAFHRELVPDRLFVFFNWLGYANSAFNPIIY
# Experiment: Competition binding against ICYP on E. coli expressing Huβ1AR (pSMLβ1)
compound,measurement,value
CNC[C@H](O)c1ccc(O)c(O)c1 [epinephrine],Ki,0.696 µM
